{"source": "IntAct's records for PubMed 35512704", "parents": {"B1": {"name": "RAC-alpha serine/threonine-protein kinase (Homo sapiens), P31749 (parent)", "chain": "MSDVAIVKEGWLHKRGEYIKTWRPRYFLLKNDGTFIGYKERPQDVDQREAPLNNFSVAQCQLMKTERPRPNTFIIRCLQWTTVIERTFHVETPEEREEWTTAIQTVADGLKKQEEEEMDFRSGSPSDNSGAEEMEVSLAKPKHRVTMNEFEYLKLLGKGTFGKVILVKEKATGRYYAMKILKKEVIVAKDEVAHTLTENRVLQNSRHPFLTALKYSFQTHDRLCFVMEYANGGELFFHLSRERVFSEDRARFYGAEIVSALDYLHSEKNVVYRDLKLENLMLDKDGHIKITDFGLCKEGIKDGATMKTFCGTPEYLAPEVLEDNDYGRAVDWWGLGVVMYEMMCGRLPFYNQDHEKLFELILMEEIRFPRTLGPEAKSLLSGLLKKDPKQRLGGGSEDAKEIMQHRFFAGIVWQHVYEKKLSPPFKPQVTSETDTRYFDEEFTAQMITITPPDQDDSMECVDSERRPHFPQFSYSASGTA", "partner": "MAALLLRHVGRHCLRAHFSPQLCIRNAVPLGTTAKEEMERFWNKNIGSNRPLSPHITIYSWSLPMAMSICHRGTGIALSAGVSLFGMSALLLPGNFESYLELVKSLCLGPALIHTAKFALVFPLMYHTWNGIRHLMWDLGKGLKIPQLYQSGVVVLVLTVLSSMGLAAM"}, "B2": {"name": "RAC-alpha serine/threonine-protein kinase (Homo sapiens), P31749 (parent)", "chain": "B1 chain", "partner": "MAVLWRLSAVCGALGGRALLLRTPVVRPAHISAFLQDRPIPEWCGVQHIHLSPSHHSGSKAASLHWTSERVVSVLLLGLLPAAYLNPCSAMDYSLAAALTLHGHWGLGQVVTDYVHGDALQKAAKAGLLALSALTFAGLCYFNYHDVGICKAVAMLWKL"}, "B3": {"name": "RAC-alpha serine/threonine-protein kinase (Homo sapiens), P31749 (parent)", "chain": "B1 chain", "partner": "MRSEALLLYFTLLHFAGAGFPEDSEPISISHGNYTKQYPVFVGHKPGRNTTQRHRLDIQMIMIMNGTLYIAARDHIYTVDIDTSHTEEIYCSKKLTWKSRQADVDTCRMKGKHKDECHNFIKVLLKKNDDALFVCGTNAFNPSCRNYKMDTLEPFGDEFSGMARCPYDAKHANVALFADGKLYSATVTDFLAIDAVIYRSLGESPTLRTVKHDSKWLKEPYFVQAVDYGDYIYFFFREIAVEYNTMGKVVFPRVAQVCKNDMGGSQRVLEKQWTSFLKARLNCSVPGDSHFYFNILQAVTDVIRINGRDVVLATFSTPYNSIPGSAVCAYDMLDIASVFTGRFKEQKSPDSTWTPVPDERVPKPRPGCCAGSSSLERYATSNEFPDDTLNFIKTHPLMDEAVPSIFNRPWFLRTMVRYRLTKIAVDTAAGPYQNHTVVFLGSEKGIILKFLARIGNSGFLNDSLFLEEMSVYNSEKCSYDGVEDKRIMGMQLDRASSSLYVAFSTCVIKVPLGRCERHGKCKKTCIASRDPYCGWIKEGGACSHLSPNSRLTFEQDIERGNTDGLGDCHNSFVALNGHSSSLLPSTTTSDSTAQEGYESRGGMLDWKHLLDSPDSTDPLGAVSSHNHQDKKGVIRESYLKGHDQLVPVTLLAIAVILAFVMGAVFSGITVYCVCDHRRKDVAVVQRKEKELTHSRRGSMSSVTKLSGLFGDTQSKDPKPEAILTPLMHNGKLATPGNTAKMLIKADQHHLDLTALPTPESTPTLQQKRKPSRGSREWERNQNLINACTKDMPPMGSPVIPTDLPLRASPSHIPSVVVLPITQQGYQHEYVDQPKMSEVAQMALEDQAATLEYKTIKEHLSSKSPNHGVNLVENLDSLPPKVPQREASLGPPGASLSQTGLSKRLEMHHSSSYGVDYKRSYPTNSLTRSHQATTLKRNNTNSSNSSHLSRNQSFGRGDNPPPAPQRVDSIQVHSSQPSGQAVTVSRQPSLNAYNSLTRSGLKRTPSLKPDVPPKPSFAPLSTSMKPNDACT"}, "B4": {"name": "RAC-alpha serine/threonine-protein kinase (Homo sapiens), P31749 (parent)", "chain": "B1 chain", "partner": "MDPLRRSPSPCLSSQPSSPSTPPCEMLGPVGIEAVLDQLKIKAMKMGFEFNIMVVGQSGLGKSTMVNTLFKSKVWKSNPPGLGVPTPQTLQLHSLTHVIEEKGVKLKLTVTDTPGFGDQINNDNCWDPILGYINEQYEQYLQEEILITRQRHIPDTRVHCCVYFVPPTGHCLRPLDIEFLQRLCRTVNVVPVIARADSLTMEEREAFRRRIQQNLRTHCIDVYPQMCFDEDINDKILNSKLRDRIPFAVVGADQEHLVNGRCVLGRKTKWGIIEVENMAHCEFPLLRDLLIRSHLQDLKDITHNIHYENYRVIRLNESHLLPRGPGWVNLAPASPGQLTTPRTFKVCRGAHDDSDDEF"}, "B5": {"name": "RAC-alpha serine/threonine-protein kinase (Homo sapiens), P31749 (parent)", "chain": "B1 chain", "partner": "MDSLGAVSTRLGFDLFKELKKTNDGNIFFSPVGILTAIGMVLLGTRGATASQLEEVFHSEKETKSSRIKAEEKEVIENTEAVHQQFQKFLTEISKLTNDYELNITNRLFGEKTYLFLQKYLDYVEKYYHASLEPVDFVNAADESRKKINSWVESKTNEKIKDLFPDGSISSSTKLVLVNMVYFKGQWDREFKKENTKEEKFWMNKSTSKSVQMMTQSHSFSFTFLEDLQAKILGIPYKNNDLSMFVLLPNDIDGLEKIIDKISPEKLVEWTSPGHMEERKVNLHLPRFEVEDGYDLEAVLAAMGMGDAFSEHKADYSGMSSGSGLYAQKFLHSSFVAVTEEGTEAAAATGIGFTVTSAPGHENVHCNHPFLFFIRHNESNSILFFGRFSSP"}, "B6": {"name": "RAC-alpha serine/threonine-protein kinase (Homo sapiens), P31749 (parent)", "chain": "B1 chain", "partner": "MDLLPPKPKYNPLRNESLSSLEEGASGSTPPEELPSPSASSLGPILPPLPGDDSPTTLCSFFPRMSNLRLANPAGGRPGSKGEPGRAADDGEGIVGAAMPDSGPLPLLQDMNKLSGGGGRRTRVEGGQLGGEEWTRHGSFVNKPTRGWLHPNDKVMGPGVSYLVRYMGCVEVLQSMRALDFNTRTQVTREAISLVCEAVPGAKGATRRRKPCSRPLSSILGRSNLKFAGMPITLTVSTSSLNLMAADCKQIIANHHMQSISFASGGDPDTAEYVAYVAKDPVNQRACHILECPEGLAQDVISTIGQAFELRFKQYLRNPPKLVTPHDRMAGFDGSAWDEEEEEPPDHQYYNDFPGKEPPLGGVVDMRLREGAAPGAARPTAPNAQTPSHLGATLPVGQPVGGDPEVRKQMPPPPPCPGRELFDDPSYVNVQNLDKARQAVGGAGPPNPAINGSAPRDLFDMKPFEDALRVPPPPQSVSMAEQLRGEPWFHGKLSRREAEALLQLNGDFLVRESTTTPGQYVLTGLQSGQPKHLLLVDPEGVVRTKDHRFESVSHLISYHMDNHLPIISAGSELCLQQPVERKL"}}, "data": [{"variants_of": "B1", "conditions": "with c560_human SDHC", "values": [{"variant": "E17K", "effect of a mutation on the interaction": "with no effect"}]}, {"variants_of": "B2", "conditions": "with dhsd_human SDHD", "values": [{"variant": "E17K", "effect of a mutation on the interaction": "with no effect"}]}, {"variants_of": "B3", "conditions": "with sem6a_human SEMA6A", "values": [{"variant": "E17K", "effect of a mutation on the interaction": "with no effect"}]}, {"variants_of": "B4", "conditions": "with sep12_human SEPTIN12, Q8IYM1", "values": [{"variant": "E17K", "effect of a mutation on the interaction": "with no effect"}]}, {"variants_of": "B5", "conditions": "with spb13_human SERPINB13, Q9UIV8", "values": [{"variant": "E17K", "effect of a mutation on the interaction": "with no effect"}]}, {"variants_of": "B6", "conditions": "with shc1_human SHC1, P29353", "values": [{"variant": "E17K", "effect of a mutation on the interaction": "with no effect"}]}]}
